Shown are actives, neighbours in structure and some others; about 2.3% of the full set was active somewhere.
A549 viability: counter-screen for Nrf2 inhibitors: cytotoxicity in A549 cells; actives 0.16% (n = 390,000); Potency, µM (highest dose often 46 µM), inactives show at the top dose activity change, negative = cytotoxicity, actives largely listed as inhibitors; AID 504648; A549 ARE-Fluc cells, CellTiter-Fluor viability, 18-24 h; note: potency is the fitted concentration of half-maximal effect; % is set by controls: 0 for no effect and ±100 for the full control effect
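Cytotoxicity counterscreen: CellTiter-Fluor fluorescence was measured in A549 ARE_Fluc cells after 18-24 h of compound exposure in a concentration series. The subsequent BugLite luminescent read reports ARE-luciferase activity.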
Mito fusion act: mitochondrial division inhibition or fusion activation | S. cerevisiae fusion-defective mutant growth rescue, CellTiterGlo 48 h | Potency, µM (top dose mostly 46.1 µM), for inactives: top-dose growth rescue (activation), hits mostly activators | actives 0.23% (n = 320,000); note: potency is the fitted concentration of half-maximal effect; % of control where 0% means no effect; nearly all actives have a fitted effect of over 45% in size
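Temperature-sensitive fusion-defective S. cerevisiae (e.g. fzo1-1, mgm1-5) were grown with compound in YPEG medium (3% ethanol, 3% glycerol) for 48 hours at 37C. Growth rescue was measured as viability by CellTiterGlo luminescence after 10 minutes at ambient.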
Nrf2 activator: Nrf2 pathway activation; AREc32 ARE-luciferase reporter (MCF7-derived line), luminescence, 24 h; Potency, µM (top dose mostly 46.1 µM), without a hit: at the highest dose activation, actives largely listed as activators; actives 0.31% (n = 410,000); AID 624171; note: potency is the fitted concentration of half-maximal effect; % of control where 0% means no effect; nearly all actives have a fitted effect of over 65% in size
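Reporter line AREc32 (ARE-Fluc), seeded overnight in OPTI-MEM with 5% FBS; compound pin-transferred, 24 hr at 37 deg C, 5% CO2; luminescent read-out.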
miR-21 reporter: miR-21 reporter, rising signal. 340,000 tested, under 10 active. Potency, µM (highest dose often 38.3 µM), for the others: at the highest dose reporter change, positive = more light. HeLa miR-21 FLuc reporter, luciferase, 48 h. AID 2288; active = well fitted rising curve with a large enough effect; inconclusive = small, poorly fitted or top-dose-only effect; inactive = no such curve, though single readings can be large or run the other way;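 further: % of control where 0% means no effect; miR-21 action dims this reporter so a rising signal means less miR-21 action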
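Using DMEM plus 10% FBS, HeLa miR-21-FLuc cells are incubated with test compounds (final up to about 40uM) for 48 hours; firefly luciferase signal is then imaged following reagent-mediated lysis.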
GRP78 ERSR act: inducers of ER stress response in human glioma cells | U87-MG GRP78 promoter luciferase reporter, 16 h | Potency, µM, inactives show top-dose activation, hits mostly activators | actives 0.02% (n = 420,000); note: potency is the fitted concentration of half-maximal effect; series mostly up to about 76 µM; % of control where 0% means no effect; nearly all actives have a fitted effect of over 35% in size
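ERSR induction read as luciferase luminescence (Bright-Glo, 10 min at room temperature) in stably transfected human U87-MG glioma cells exposed to compounds for 16 h, using GRP78 as sensor.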
Nrf2 inh: Nrf2 pathway inhibition; actives 2.1% (n = 360,000); A549 ARE-Fluc reporter, luciferase luminescence, 18-24 h; Potency, µM (highest dose often 46 µM), for inactives: top-dose activity change, negative = inhibition, most hits filed as inhibitors; note: potency is the fitted concentration of half-maximal effect; % is set by controls: 0 for no effect and ±100 for the full control effect; nearly all actives have a fitted effect of over 60% in size
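A549 ARE_Fluc cells (5000/well, 5% FBS OPTI-MEM) pre-incubated 2 h, then treated with compounds 18-24 h at 37C/5% CO2 in concentration-response. CellTiter-Fluor viability read first; BugLite luciferase luminescence after 15 min at room temperature gives Nrf2 activity.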
An asterisk follows results filed as active; ? = inconclusive; . = not tested or not shown; [ ] = another dose, or the depositor's remark. Calls come from the whole dose curve; as a rule, active = well fitted curve in the direction sought with a large enough effect; inconclusive = small, poorly fitted or top-dose-only effect, or another doubt; inactive = no such curve, though single readings can be large; an effect the other way counts as inactive or inconclusive.

No. | SMILES | miR-21 reporter | GRP78 ERSR act | Mito fusion act
1 | Cc1ccccc1Nc1nnc(SCc2cc([N+](=O)[O-])cc3c2OCOC3)s1 | 1.3% | -7.1% | 20.5%
2 | O=[N+]([O-])c1cc2c(c(CSc3nnc(Nc4ccccc4)s3)c1)OCOC2 | 1.1% | -4.8% | -0.2%
3 | NC(=S)n1[nH]c(-c2ccc([N+](=O)[O-])cc2)c(N=Nc2ccc(O)cc2)c1=O | -3.7% | -4.4% | -2.1%
4 | NC(=S)n1[nH]c(-c2ccc([N+](=O)[O-])cc2)c(N=Nc2cccc(Cl)c2)c1=O | 3.6% | -5.9% | 0.1%
5 | O=[N+]([O-])c1ccc(N2CCN(c3ccc(O)cc3)CC2)cn1 | 10.8% | 2.3% | -9.1%
6 | O=C(O)CSC(C(=O)Nc1ccc(Br)cc1)c1ccccc1 (stereo not drawn) | -1.3% | -2.5% | -0.2%
7 | Cc1ccc(C)c(S(=O)(=O)NCc2ccc(C(=O)N3CCN(C)CC3)cc2)c1 | -2.4% | -5.4% | -6.5%
8 | Cc1ccc(C)c(S(=O)(=O)NCc2ccc(C(=O)N3CCC(Cc4ccccc4)CC3)cc2)c1 | 18.3% | -5.2% | 8.9%

No. | Nrf2 inh | Nrf2 activator | A549 viability
1 | 25.9µM* | 0.1% | -0.6%
2 | -10.7% | 0.3% | -9.1%
3 | ? | 2.6% | -9.5%
4 | 18.4µM* | 1.2% | ?
5 | 20.6µM* | 0.6% | -27.2%
6 | -4.1% | 0.6% | -1.5%
7 | 9.2% | -1.0% | -2.4%
8 | 16.4µM* | 2.1% | -10.6%[1.84 µM]

The listing continues.
No. | SMILES | miR-21 reporter | GRP78 ERSR act | Mito fusion act
9 | COc1ccc(CN(C)C(=O)CNC(=O)c2ccc3ccccc3c2)c(OC)c1 | 5.4% | -2.5% | 10.1%
10 | COc1ccc(Br)cc1CN(C)C(=O)CNC(=O)c1ccc2ccccc2c1 | 0.2% | -5.7% | -9.1%
11 | CCCCn1c(=N)n(CC(=O)c2ccco2)c2ccccc21 | 0.5% | 0.6% | -3.7%
12 | CCn1c(=N)n(CC(=O)c2ccco2)c2ccccc21 | 11.0% | 9.3% | -4.7%
13 | CCn1c2ccccc2c2cc(NC(=O)CSc3nnc(C4CC4)n3Cc3ccco3)ccc21 | 2.8% | -1.4% | 5.7%
14 | CCn1c2ccccc2c2cc(NC(=O)c3ccco3)ccc21 | -33.6% | 2.5% | ?
15 | Cc1nn(C)cc1CNC(=O)C1CCC(=O)N(Cc2cccc(C(F)(F)F)c2)C1 (stereo not drawn) | -0.1% | -1.4% | -1.0%
16 | CC(C(=O)O)n1ncc2ccccc2c1=O (stereo not drawn) | 4.9% | 16.3% | -3.8%

No. | Nrf2 inh | Nrf2 activator | A549 viability
9 | ? | 0.0% | 0.8%
10 | 18.4µM* | -0.4% | ?
11 | -25.5% | 12.9% | 1.6%
12 | -19.5% | 10µM* | -25.7%
13 | 18.4µM* | 3.8% | -11.7%
14 | 20.6µM* | 1.7% | -18.3%
15 | -20.6% | -0.3% | -3.7%
16 | 3.6% | -0.4% | 1.3%

An excerpt of these results, with values under each structure:
Below each SMILES – miR-21 reporter, GRP78 ERSR act, Mito fusion act, Nrf2 inh, Nrf2 activator, A549 viability
16: CC(C(=O)O)n1ncc2ccccc2c1=O (stereo not drawn)
    4.9%, 16.3%, -3.8%, 3.6%, -0.4%, 1.3%
13: CCn1c2ccccc2c2cc(NC(=O)CSc3nnc(C4CC4)n3Cc3ccco3)ccc21
    2.8%, -1.4%, 5.7%, 18.4µM*, 3.8%, -11.7%
10: COc1ccc(Br)cc1CN(C)C(=O)CNC(=O)c1ccc2ccccc2c1
    0.2%, -5.7%, -9.1%, 18.4µM*, -0.4%, ?

(further entries)
No. | SMILES | miR-21 reporter | GRP78 ERSR act | Mito fusion act
17 | O=C(NC1CCCCCC1)c1c2c(nc3ccccc13)CCN(Cc1ccccc1)C2 | 0.1% | -1.0% | 0.0%
18 | CC1CCc2nc3ccccc3c(C(=O)OCC(=O)NC3CCS(=O)(=O)C3)c2C1 (stereo not drawn) | 1.3% | -1.4% | -0.4%
19 | COc1cccc(NC(=O)COC(=O)c2c3c(nc4ccccc24)CCC(C)C3)c1 (stereo not drawn) | 25.3% | -4.5% | -3.7%
20 | Cc1cc(N2CCN(C)CC2)ccc1NC(=O)c1c2c(nc3ccccc13)CCN(Cc1ccccc1)C2 | -26.1% | -14.5% | 8.0%
21 | Cc1c(Cl)cccc1NC(=O)COC(=O)c1c2c(nc3ccccc13)CCN(Cc1ccccc1)C2 | -1.3% | -4.0% | 7.0%
22 | CC(C)c1ccccc1NC(=O)COC(=O)c1c2c(nc3ccccc13)CCN(Cc1ccccc1)C2 | 26.6% | 0.9% | ?
23 | COc1ccc(S(=O)(=O)N2CCN(C(=O)NCc3ccc(C)cc3)CC2)cc1 | 1.6% | -5.1% | -0.7%
24 | COc1cc(C(=O)Nc2ccc3nn(-c4ccc(F)cc4)nc3c2)cc(OC)c1OC | -8.3% | 0.2% | .

No. | Nrf2 inh | Nrf2 activator | A549 viability
17 | ? | -0.5% | -14.8%
18 | 5.7% | -0.3% | -1.3%
19 | 16.4µM* | -2.7% | ?
20 | 18.4µM* | 28.1% | 10.3µM*
21 | 20.6µM* | -0.4% | ?
22 | ? | -2.5% | -17.9%
23 | -8.9% | 0.1% | 1.0%
24 | 8.2% | -0.1% | -0.5%

(listing goes on)
No. | SMILES | miR-21 reporter | GRP78 ERSR act | Mito fusion act
25 | COc1ccc(NCc2n[nH]nc2-c2ccccc2)cc1Cl | 2.0% | -1.9% | 25.5%
26 | Nc1c(-c2ccccc2)cnc2c(-c3ccccc3)cnn12 | -72.6% | -5.7% | -2.2%
27 | CSc1ccccc1OCc1cc(C(=O)N2CCc3c(Cl)cccc3C2)no1 | -4.4% | 3.9% | 0.1%
28 | COc1ccc(C(=O)OCC(=O)c2cc(OC)ccc2OC)c(OC)c1 | -30.6% | -2.0% | 11.3%
29 | COc1ccc(OC)c(C(=O)COC(=O)c2ccc(C)o2)c1 | -12.1% | 4.0% | 5.7%
30 | CCOC(=O)c1[nH]c2ccc(OC)cc2c1NC(=S)N1CCN(c2ccccn2)CC1 | 1.3% | -2.0% | 7.9%
31 | O=C(Nc1cccc(O)c1)c1cc(-c2ccc3c(c2)OCO3)on1 | 29.7% | -17.5% | -16.7%
32 | Cc1ccc(O)c(NC(=S)NC(=O)/C=C/c2ccccc2)c1 | -0.1% | -2.7% | -2.5%

No. | Nrf2 inh | Nrf2 activator | A549 viability
25 | 4.4% | -0.3% | -8.0%
26 | ? | -1.8% | 9.5%
27 | 9.2µM* | 0.0% | 3.4%
28 | . | 3.3% | 0.3%
29 | -4.9% | 12.6µM* | -2.6%
30 | 4.1% | 0.9% | 9.9%
31 | 14.6µM* | -1.1% | 0.7%
32 | -1.3% | 11.2µM* | -4.4%

(further entries)
No. | SMILES | miR-21 reporter | GRP78 ERSR act | Mito fusion act
33 | CCCN(CC(=O)Nc1ccccc1OC)CC(=O)c1c(N)n(Cc2ccccc2)c(=O)n(C)c1=O | . | -3.2% | .
34 | CCCCCCN1C[C@@H](O)[C@H](n2cc(-c3ccc(F)cc3)nn2)C[C@@H]1c1ccc(C)cc1 | . | -4.7% | .
35 | COCCNC(=O)c1c[nH]c2ccc(S(=O)(=O)N3CCc4ccccc43)cc2c1=O | 24.5% | -0.5% | -13.3%
36 | O=C(Nc1cc(Br)ccc1O)c1cnn2c(C(F)F)cc(C3CC3)nc12 | -11.7% | -2.3% | -7.3%
37 | O=C(NC1CCCCC1)N(c1ccccc1)c1nnc(-c2cccc([N+](=O)[O-])c2)s1 | . | 1.8% | .
38 | O=[N+]([O-])c1cc([N+](=O)[O-])c2c(=Nc3ccccc3)n(-c3ccccc3)n(O)c2c1 | 15.9% | 19.7% | -12.8%
39 | O=[N+]([O-])c1cc(Br)c(Nc2ccccc2)c([N+](=O)[O-])c1 | 19.9% | -11.8% | -75.1%
40 | COc1ccc(OC)c(-c2nnc3n2N=C(c2ccc(OC)c(OCC4CC4)c2)CS3)c1 | . | -2.5% | .
41 | COc1ccc(C2=Nn3c(nnc3-c3ccccc3Cl)SC2)cc1OCC1CC1 | . | -6.9% | .
42 | Fc1ccccc1-c1nnc2n1N=C(c1ccc(OC(F)F)c(OCC3CC3)c1)CS2 | . | -2.2% | .
43 | CCOc1ccc(Nc2oc(-c3cccs3)nc2C#N)cc1 | -51.4% | 4.3% | 2.7%

No. | Nrf2 inh | Nrf2 activator | A549 viability
33 | 13µM* | 0.2% | -19.1%
34 | . | -0.4% | .
35 | 16.4µM* | 0.0% | -9.0%
36 | -6.4% | 2.51µM* | 7.9%
37 | . | 3.16µM* | .
38 | -10.9% | 14.1µM* | -22.4%
39 | ? | -3.5% | -20.8%
40 | 14.6µM* | 0.2% | ?
41 | 20.6µM* | -2.1% | ?
42 | -7.4% | 3.1% | -1.6%
43 | 16.4µM* | 2.1% | -20.0%

Screening results (PubChem)
